From patent US20240000956A1 (UT BATTELLE, published 2024)

Biological target: endogenous c-MET immunoprecipitated from 293T cells (human, UniProt P08581)
Test: direct interaction assay: in-vitro translated Flag-HGF 4Cys-4Ala added to endogenous c-MET immunoprecipitated on anti-MET beads, immunoblot
Procedure: FIG. 3A-E: HGF PAN domain regulates c-MET signaling cascade via four core cysteines. A. Mutation of the core cysteines in HGF PAN domain blocks HGF-induced c-MET signaling. Both 293T and U-87 MG cells were stimulated with HGF WT and HGF 4Cys-4Ala proteins for the indicated amount of time. […] Representative blot images from n=2 experiments for individual cell line. B. Immunoblot showing that the core cysteines on the HGF PAN domain regulate its binding with c-MET. c-MET was immunoprecipitated from 293T cells on anti-MET bound beads. In-vitro translated Flag-tagged HGF WT and HGF 4Cys-4Ala were added to the beads as indicated to detect the interaction between endogenous c-MET and Flag-HGF WT and Flag-HGF 4Cys-4Ala. C. Right panel, quantification of the band intensities (n=2; ***p<0.0005 (Student's t test)). Immunoprecipitated Flag-HGFs band intensities were normalized to the respective c-MET IP bands and then further normalized to HGF-WT. D. HGF PAN domain defines perinuclear translocation of c-MET in cells. HeLa cells were stimulated with HGF WT and HGF 4Cys-4Ala proteins for the indicated amount of time following serum starvation. Post stimulation cells were fixed, mounted and endogenous c-MET localization pattern was visualized using Zeiss LSM 710 at 63× objective. Scale bars represent 20 μm. […] E. PAN domain regulates c-MET ubiquitination. […]

B1: Flag-HGF 4Cys-4Ala (ligand, human, UniProt P14210 32-728, looked up)
chain: QRKRRNTIHEFKKSAKTTLIKIDPALKIKTKKVNTADQAANRATRNKGLPFTAKAFVFDKARKQALWFPFNSMSSGVKKEFGHEFDLYENKDYIRNCIIGKGRSYKGTVSITKSGIKCQPWSSMIPHEHSFLPSSYRGKDLQENYCRNPRGEEGGPWCFTSNPEVRYEVCDIPQCSEVECMTCNGESYRGLMDHTESGKICQRWDHQTPHRHKFLPERYPDKGFDDNYCRNPDGQPRPWCYTLDPHTRWEYCAIKTCADNTMNDTDVPLETTECIQGQGEGYRGTVNTIWNGIPCQRWDSQYPHEHDMTPENFKCKDLRENYCRNPDGSESPWCFTTDPNIRVGYCSQIPNCDMSHGQDCYRGNGKNYMGNLSQTRSGLTCSMWDKNMEDLHRHIFWEPDASKLNENYCRNPDDDAHGPWCYTGNPLIPWDYCPISRCEGDTTPTIVNLDHPVISCAKTKQLRVVNGIPTRTNIGWMVSLRYRNKHICGGSLIKESWVLTARQCFPSRDLKDYEAWLGIHDVHGRGDEKCKQVLNVSQLVYGPEGSDLVLMKLARPAVLDDFVSTIDLPNYGCTIPEKTSCSVYGWGYTGLINYDGLLRVAHLYIMGNEKCSQHHRGKVTLNESEICAGAEKIGSGPCEGDYGGPLVCEQHKMRMVLGVIVPGRGCAIPNRPGIFVRVAYYAKWIHKIILTYKVPQS
notes: In-vitro translated for the c-MET pull-down; Purified protein was used to stimulate cells, and it is treated here as the same construct; also called 4Cys-4Ala HGF; PAN mutant HGF; not shown: Flag tag
- binding result: no binding
